Assay results reported in PMC11024197 (2024).

Legend:
Assay in all cases: ITC
[1] = molecular target: T1, PEX5_W7 (Homo sapiens (Human), UniProt P50542)
T1 chain: AEAHPWLSDYDDLTS

[2] = molecular target: T2, PEX5_W1 (Homo sapiens (Human), UniProt P50542)
T2 chain: ALSENWAQEFLAAGD

[3] = molecular target: T3, PEX5_W6 (Homo sapiens (Human), UniProt P50542)
T3 chain: GTSDAWVDQFTRPVN

[4] = molecular target: T4, PEX5_W5 (Homo sapiens (Human), UniProt P50542)
T4 chain: AQAEQWAAEFIQQQG

[5] = molecular target: PEX5_W0 (Homo sapiens (Human), UniProt P50542)

Measured: Kd

B1: PEX13 (protein)
chain: VTDSINWASGEDDHVVARAEYDFAAVSEEEISFRAGDMLNLALKEQQPKVRGWLLASLDGQTTGLIPANYVKILGKRKGRKTVESS
> 110 µM: all assays above
